The numbers were not newly measured in patent US6287586A, “Pharmaceutical compositions of vanadium biguanide complexes and their use” (priority 1999, dated 2001), which cites them from elsewhere.

Structures are written as SMILES.

For this series the following is noted: in vivo; cited from earlier work.

In the case of `CN(C)C(=N)N=C(N)N` [Metformin, 1,1-dimethylbiguanide], the “binding to liver or plasma proteins (in words)” value was “does not bind to liver or plasma proteins” and the “metabolism by the liver (in words)” value is recorded as “not metabolized by the liver”.
